Test system: IL-1β release in LPS-activated human peripheral blood mononuclear cells (PBMC)
Assay: LPS-induced IL-1β release from human PBMC
Type: cell-based
Set-up: unit not given here
Settings: Dexamethasone control, concentration not given; LPS-stimulated PBMC
Description: The ability of GMCY to inhibit release of pro-inflammatory cytokines (TNF-α and IL-1) in LPS-activated human peripheral blood mononuclear cells (PBMC) has been investigated.

Q: With `C[C@@H]1C[C@H]2[C@@H]3CCC4=CC(=O)C=C[C@]4(C)[C@@]3(F)[C@@H](O)C[C@]2(C)[C@@]1(O)C(=O)CO` [Dexamethasone, reference compound] as the compound, how does the IL-1β read?
A: 172

Source: patent US20080167375A1, “TREATMENT OF CUTANEOUS NEUROGENIC INFLAMMATION” (Astion Pharma A/S, priority 2006, published 2008)
